# In ChEMBL document CHEMBL4261537, “Synthesis and pharmacological evaluation of multi-functional homoisoflavonoid derivatives as potent inhibitors of monoamine oxidase B and cholinesterase for the treatment of Alzheimer's disease” (Medchemcomm, 2017):
# Protein sequences, listed by entry. Tags and fused reporters are not part of them.
# UniProt P21397, whole entry: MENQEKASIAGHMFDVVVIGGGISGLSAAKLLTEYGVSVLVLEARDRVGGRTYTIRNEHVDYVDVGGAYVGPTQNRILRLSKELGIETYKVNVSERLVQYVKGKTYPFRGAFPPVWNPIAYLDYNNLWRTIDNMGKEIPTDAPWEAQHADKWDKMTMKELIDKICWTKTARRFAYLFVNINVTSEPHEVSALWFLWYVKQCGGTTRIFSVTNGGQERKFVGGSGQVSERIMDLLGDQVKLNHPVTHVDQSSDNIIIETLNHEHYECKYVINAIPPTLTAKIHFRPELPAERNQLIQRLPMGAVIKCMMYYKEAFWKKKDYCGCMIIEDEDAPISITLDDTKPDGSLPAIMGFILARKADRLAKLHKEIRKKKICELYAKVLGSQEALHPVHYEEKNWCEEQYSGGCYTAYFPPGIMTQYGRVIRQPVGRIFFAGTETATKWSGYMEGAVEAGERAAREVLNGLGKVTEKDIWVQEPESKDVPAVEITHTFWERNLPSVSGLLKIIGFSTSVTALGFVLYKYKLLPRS
# Molecular target: Amine oxidase [flavin-containing] A (Homo sapiens, UniProt P21397)
# Assay: Inhibition of recombinant human MAO-A assessed as reduction in H2O2 production using p-tyramine as substrate preincubated for 15 mins followed by substrate addition by Amplex red reagent based fluorescence assay
# In short: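 Human MAO-A, adjusted to give the same control reaction velocity, preincubated 15 min at 37°C with compound in sodium phosphate buffer; 200 μM Amplex Red reagent with 1 U/mL horseradish peroxidase and 1 mM p-tyramine then added. Resorufin fluorescence (ex 545, em 590 nm) read at 37°C, enzyme-free background subtracted; triplicate.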
compound,measurement,value
C#CCN(C)Cc1ccccc1 [PARGYLINE],IC50,1.1 µM
